Results taken from patent US8889709B2, “Use of isoQC inhibitors in the treatment and prevention of inflammatory diseases or conditions” (Probiodrug AG, priority 2006, dated 2014).

The chains behind the UniProt entries cited, without tags or fusion partners. Residues count along the entry.
UniProt Q9NXS2, 48-382 I73N/C369A: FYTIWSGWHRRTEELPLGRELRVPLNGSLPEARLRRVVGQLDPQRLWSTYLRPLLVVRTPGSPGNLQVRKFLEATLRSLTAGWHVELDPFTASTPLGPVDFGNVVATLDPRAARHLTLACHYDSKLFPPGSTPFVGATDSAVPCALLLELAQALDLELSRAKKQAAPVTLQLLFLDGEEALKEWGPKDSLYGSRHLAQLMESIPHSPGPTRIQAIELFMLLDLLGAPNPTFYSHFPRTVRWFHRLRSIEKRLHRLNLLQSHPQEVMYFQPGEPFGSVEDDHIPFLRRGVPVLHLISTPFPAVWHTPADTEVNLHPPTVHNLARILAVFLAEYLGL
UniProt Q9NXS2, 48-382: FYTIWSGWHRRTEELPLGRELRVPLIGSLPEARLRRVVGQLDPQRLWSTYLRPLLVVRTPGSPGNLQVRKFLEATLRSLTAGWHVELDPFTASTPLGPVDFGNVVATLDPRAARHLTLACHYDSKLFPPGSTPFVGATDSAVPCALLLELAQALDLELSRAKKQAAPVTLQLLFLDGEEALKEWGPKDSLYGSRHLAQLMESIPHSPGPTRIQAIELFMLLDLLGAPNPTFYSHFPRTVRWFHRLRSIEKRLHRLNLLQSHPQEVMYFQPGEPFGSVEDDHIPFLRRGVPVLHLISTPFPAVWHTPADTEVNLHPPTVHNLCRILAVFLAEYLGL

How the values were obtained:
human isoQC [1] = biological target: human isoQC (Homo sapiens, UniProt Q9NXS2, C369A/I73N); assay: Kinetic evaluation of peptide substrates of human isoQC; type: biochemical; set-up: The cDNA of the mature human isoQC starting with codon 30 (counting from methionine II); His6 (C-His) (C); yeast alpha-factor secretion signal (YSS) (N); made in house; host or cells: Pichia pastoris X-33; details: human isoQC expressed in P. pastoris (YSShisoQC)
Experimental: (§1) Excitation/emission wavelengths were 320/410 nm.
(§2) Excitation/emission wavelengths were 380/460 nm.
(§3) Kinetic data were evaluated using GraFit software.

human isoQC [2] = biological target: human isoQC (Homo sapiens, UniProt Q9NXS2); assay: as above; type: biochemical; set-up: The cDNA of the mature human isoQC starting with codon 30 (counting from methionine II); His6 (C-His) (C); yeast alpha-factor secretion signal (YSS) (N); made in house; host or cells: Pichia pastoris X-33; details: human isoQC expressed in E. coli BL21 (hisoQCdt)
Experimental: as §1, §2, §3

Compound: C[C@H](NC(=O)[C@H](Cc1ccc(O)cc1)NC(=O)[C@@H](N)CCC(N)=O)C(=O)O [QYA]
- Km (human isoQC [1]): 0.08 ± 0.022 mM
- Km (human isoQC [2]): 0.22 ± 0.01 mM
